## Measured affinities in a library of Ab-14 heavy chain variants

The measurements come from Engelhart et al. 2022 (doi:10.1038/s41597-022-01779-4) through the FLAb antibody collection.

Target peptide (SARS-CoV-2 spike, HR2 region): PDVDLGDISGINAS

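Variants in AAYL49 differ from the parent at up to three CDR positions; double and triple changes were sampled at random. The scFvs were displayed on barcoded MATa yeast, the peptide on MATalpha yeast. Binding brings cells together so that they mate, and sequencing counts the barcode pairs among the diploids. A regression on co-assayed BCL2-family reference pairs converts the normalised counts of each replicate to an apparent Kd. The assay was run in three technical replicates.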

Each scFv is VH, a 15-residue (Gly4Ser)3 linker, VL, as in the parent Ab-14, and differs from it in the CDRs of the heavy chain only.
VH: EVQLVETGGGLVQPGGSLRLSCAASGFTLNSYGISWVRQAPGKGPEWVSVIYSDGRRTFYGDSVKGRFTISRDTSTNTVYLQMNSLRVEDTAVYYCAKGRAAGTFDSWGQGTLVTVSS
VL: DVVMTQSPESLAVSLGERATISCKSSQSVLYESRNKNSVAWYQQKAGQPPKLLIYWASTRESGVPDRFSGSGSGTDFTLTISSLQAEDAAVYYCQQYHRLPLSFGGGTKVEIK

Variants are written as CDR1, CDR2 and CDR3 of the heavy chain (limits as in the source). Parent: GFTLNSYGIS, VIYSDGRRTFYGDSVK, GRAAGTFDS.
Every variant below is changed at G103 of the VH (sequential numbering).
Each Kd is an estimate from the mating assay, the geometric mean of the replicates in which the pair was seen; lower is stronger.
An entry "nd" has no value in the source: the pair was not observed among the diploids in any replicate. This suggests poor binding but is not conclusive.
Background: pairings of library AAYL49 with three empty control strains gave a value in 15% of cases (median 11 µM, 5th percentile 680 nM). Values in that range, when seen in few replicates, are hard to tell from nonspecific mating. For each scFv, signals with the empty controls are counted beside the result.

Variant GFTLNSYKIS / VIYSDGRRTFYGDSVK / GRAASTEDS gave nd (0 of 3 replicates; controls 0 of 9).
Variant GFTLNAYGIS / VIYSDGRRTFYGDSVK / GRAAITFDS gave 510 nM (3 of 3 replicates; controls 1 of 9).
Variant GFLLNSYGIS / VIYSDGRRTFYGDSVK / GKAAFTFDS gave 55 nM (3 of 3 replicates; controls 1 of 9).
Variant GFTLNSYGIS / VIYSDGRRDFYGDSVK / GRAATTFDS gave 35 µM (1 of 3 replicates; controls 0 of 9).
Variant GFTLNSHGIS / VIYSDGRRTFYGDSVK / GRAANVFDS gave nd (0 of 3 replicates; controls 0 of 9).
Variant GFTLNSYGIS / VIYSDYRRTFYGDSVK / GRAAETNDS gave nd (0 of 3 replicates; controls 0 of 9).
Variant GFTLNSYGIS / VIYSDGRRTFYKDSVK / GRAAHTFDS gave 13 µM (1 of 3 replicates; controls 0 of 9).
Variant GFTLNSYGIS / VIYSDGRRTFYGDSVK / GRAFATFDS gave 4.5 µM (2 of 3 replicates; controls 3 of 9).
Variant CFTLNSYGIS / VIYSDGRRTFYGDSVK / GRARNTFDS gave 3.0 µM (1 of 3 replicates; controls 4 of 9).
Variant GFTLNSYGIS / VIYSCGRRTEYGDSVK / GRAAQTFDS gave nd (0 of 3 replicates; controls 1 of 9).
Variant GQTLNSYGIS / VIYSDGRRTFYGDSVK / GHAATTFDS gave nd (0 of 3 replicates; controls 0 of 9).
Variant GFVLNSYGIS / VIYSDGRRTFYGDSVK / GRAAPTWDS gave 120 nM (3 of 3 replicates; controls 0 of 9).
Variant GFTLVSYGIS / VIYSDGRRTMYGDSVK / GRAARTFDS gave nd (0 of 3 replicates; controls 0 of 9).
Variant GFTLNSYGKS / VIYWDGRRTFYGDSVK / GRAAITFDS gave 1.1 µM (1 of 3 replicates; controls 1 of 9).
Variant GFTLNSYGIS / VIYSDGVRTFYGDVVK / GRAAPTFDS gave 32 µM (1 of 3 replicates; controls 1 of 9).
Variant GFTLNSYGIS / CIYSDGRCTFYGDSVK / GRAAITFDS gave nd (0 of 3 replicates; controls 0 of 9).
Variant GFTLNSYGIS / VIYSDGRWTFYGDSVK / GRAAHTIDS gave nd (0 of 3 replicates; controls 2 of 9).
Variant GFTLNSYGIS / VIYSDGIFTFYGDSVK / GRAAMTFDS gave 59 µM (1 of 3 replicates; controls 0 of 9).
Variant GFTLNSYGIS / VIYSDGRMTFYGDSVK / GRAAVTEDS gave nd (0 of 3 replicates; controls 1 of 9).
Variant GFTLNSYGIA / VIYSDGRRTFYGDSVQ / GRAAQTFDS gave nd (0 of 3 replicates; controls 4 of 9).
Variant GHTLNSYSIS / VIYSDGRRTFYGDSVK / GRAASTFDS gave 23 µM (1 of 3 replicates; controls 1 of 9).
Variant GFTLNSYGIS / VIYSDGRRTFYGDNVK / GRAAEHFDS gave nd (0 of 3 replicates; controls 0 of 9).
Variant GFTLNSYGIS / VIYSDGRRTFYGDSVK / GRAATTFDS gave 25 nM (3 of 3 replicates; controls 1 of 9).
Variant GFTLNSYGIS / VIYSDGRRTFYGDSVE / GRADKTFDS gave 710 nM (3 of 3 replicates; controls 5 of 9).
Variant GFTLNSYGIS / VIYSPGRRTFYGDSVK / GRNATTFDS gave 1.1 µM (1 of 3 replicates; controls 0 of 9).
Variant GFTLNSYGIS / VIPSDGRRTFYGDIVK / GRAAPTFDS gave nd (0 of 3 replicates; controls 0 of 9).
Variant GFTLNSAGIS / VIYGDGRRTFYGDSVK / GRAAKTFDS gave nd (0 of 3 replicates; controls 0 of 9).
Variant GFTLNSYGIS / VIYSDGRRTFYGDSVK / GRAAPTFDS gave 920 nM (1 of 3 replicates; controls 0 of 9).
Variant GFTLNSYGIS / VIYSDGRSTFYGDSVK / GRAAETFDS gave 1.0 µM (1 of 3 replicates; controls 0 of 9).
Variant GFTLNVYGIS / VIYSDGRRTGYGDSVK / GRAAWTFDS gave 36 µM (3 of 3 replicates; controls 3 of 9).
Variant GFTLNSYGFS / VIYSDGRRTFYGDSVK / GRAAMTFDN gave nd (0 of 3 replicates; controls 0 of 9).
Variant GFTLNSYGIS / VGYSDGRRTFYGDSVK / GRAARTFDQ gave nd (0 of 3 replicates; controls 1 of 9).
Variant GFTLNNYGIS / VIYSDGRRTFYGDSVK / GRAASCFDS gave 23 nM (3 of 3 replicates; controls 0 of 9).
Variant GFTLNSYGIS / TIESDGRRTFYGDSVK / GRAAETFDS gave 9.2 µM (2 of 3 replicates; controls 3 of 9).
Variant GFTLNSQGIS / VIYSDGRRTFYGDSVK / GRAATTFDS gave 1.6 µM (1 of 3 replicates; controls 1 of 9).
Variant GFTLNSYGIS / VIYSDPRRTFYSDSVK / GRAAPTFDS gave 64 µM (1 of 3 replicates; controls 5 of 9).
Variant GFTLNSYGIS / RIYSDGRRTFYGDSVR / GRAAWTFDS gave nd (0 of 3 replicates; controls 0 of 9).
Variant GFTLNSYGIS / VIYSDGYRTFYGDSVK / GRAAEKFDS gave 25 nM (3 of 3 replicates; controls 0 of 9).
Variant GFTLNSYGIS / VIYSDGRRTFFGDSVV / GRAAMTFDS gave nd (0 of 3 replicates; controls 0 of 9).
Variant GFTLNSYGIS / VIYSDGRRTFYGDSVK / GRAITTFDK gave nd (0 of 3 replicates; controls 0 of 9).
Variant GFTLNSYGIS / VIYSDGRRTFYGDSVK / GRAAVTFDS gave nd (0 of 3 replicates; controls 4 of 9).
Variant GFTLNSYGIS / VIYSDGRRTFYGPSVK / GRFARTFDS gave 640 nM (3 of 3 replicates; controls 6 of 9).
Variant GFTLDSYDIS / VIYSDGRRTFYGDSVK / GRAADTFDS gave 110 µM (1 of 3 replicates; controls 0 of 9).
Variant GFTLNSYGIS / VIYEDGRRTFYGDSVK / GTAAFTFDS gave nd (0 of 3 replicates; controls 1 of 9).

Top 3 of the variants detected in all replicates, tightest first:

CDR-H1,CDR-H2,CDR-H3,apparent Kd,replicates with signal,empty controls
GFTLNNYGIS,VIYSDGRRTFYGDSVK,GRAASCFDS,23 nM,3 of 3,0 of 9
GFTLNSYGIS,VIYSDGYRTFYGDSVK,GRAAEKFDS,25 nM,3 of 3,0 of 9
GFTLNSYGIS,VIYSDGRRTFYGDSVK,GRAATTFDS,25 nM,3 of 3,1 of 9